# Source: PubChem BioAssay (Broad Institute)
# ARNT TACC3 PPI: disruptors of human ARNT/TACC3 interaction; 390,000 tested, 0.66% active; Q9Y6A5; inhibition, % at 9.99 µM; AlphaScreen His-ARNT PAS-B/GST-TACC3 binding, luminescence; TACC3 fragment carries E629A point mutation;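 active = mean inhibition of replicates at least 50% and at least half of replicates each reaching 50%; inconclusive = half or more replicates reach 50% but mean below 50%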;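 note: 0% = complete ARNT plus TACC3 wells and 100% = ARNT alone without TACC3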
# S100A4 inh HTS: inhibitors of human S100A4 binding to myosin IIA peptide. S100A4/TAMRA-MyoIIA peptide fluorescence polarization. inhibition, % at 10.7 µM. AID 652163. 360,000 tested, 0.14% active. P26447;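 active = mean inhibition of at least 70% across replicates, with every replicate also reaching that level; inconclusive = mean inhibition reaches 70% but some replicates fall short; inactive = mean inhibition below 70%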
#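 Assay system: human S100A4 monomer with TAMRA-labelled myosin IIA peptide / Buffer or medium: Calcium-containing HEPES buffer, pH 7.2 / Reagent: TAMRA-labelled myosin IIA heavy-chain peptide probe, 5 nM / Compound: one dose per compound / Timing: polarization read 5 min after assay mix addition, stable 5–60 min / Benchmarks: neutral control DMSO, positive control TFP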
# Yeast UUG start-1: alters start codon recognition fidelity in yeast. S. cerevisiae UUG-firefly luciferase reporter, luminescence/redox ratio. activity score, % at 18.7 µM. 0.13% of 350,000 active. AID 602363;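 active = replicate mean at a twofold rise or more, about +100% in these data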;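 also: firefly luciferase made from a UUG start codon reports start codon fidelity; reporter light over untreated wells divided by growth signal over untreated wells; some hits fall short of that in this replicate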
# MLL AF4-AF9 inh: MLL-AF4/AF9 protein interaction inhibition | AlphaScreen, biotin-AF4 peptide binding to FLAG-AF9 | inhibition, % at 10 µM | 350,000 tested, 0.47% active;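 active = every replicate reaching a set inhibition limit, whatever the replicate mean, cut at about 25% in these data; inconclusive = mean inhibition reaches that limit but some replicates miss it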;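 note: 0% = plate neutral control median and 100% = total signal loss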
# E-sel inducer: E-selectin induction on HUVECs; P16581; HUVEC E-selectin immunofluorescence imaging; normalized: neutral wells 0, TNF-alpha wells 100; activation, % at 7.58 µM; 260,000 tested, 0.37% active;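 active = mean E-selectin-positive cell signal at least 10% of the positive control, reached in at least 60% of replicates, without over 20% cell loss; inconclusive = no rule given, readout overlaps actives, possibly toxicity-flagged; inactive = the rest, including those meeting only one limit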
#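 System: HUVEC, human umbilical vein endothelial cells; quantity: 3,000 cells/well; buffer or medium: EGM-2 medium, gelatin-coated wells; dosing: single-point compound dose; detection: immunofluorescence imaging; evaluation: % PE-positive cells; benchmarks: TNF-alpha, DMSO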
# ERAP1 inh: blocks human ERAP1 aminopeptidase activity. inhibition, % at 10.7 µM. 340,000 tested, 0.15% active. Q9NZ08. recombinant ERAP1, Leu-AMC fluorescence, 60 min. AID 652197;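 active = mean replicate inhibition of at least 30%, or all replicates individually reaching that 30% level; inactive = mean below 30% and not every replicate reaching it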;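 note: 0% = neutral control wells and 100% = L-leucinethiol positive control wells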
# Yeast UUG start-2: yeast start codon fidelity modulation; shares compounds with Yeast UUG start-1; S. cerevisiae UUG-start firefly luciferase, luminescence, 4 h; 100% means double the DMSO signal; activation, % at 38 µM; 540 tested, under 10 active; AID 652061;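 active = signal increase whose fitted curve reaches an absolute level of 40 at a concentration under 10 µM; inactive = activity opposite to the expected increase, or the rest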
# Numbers without * were called inactive; ? = inconclusive; · = no result; ! = not active in a repeat. The list is not random: actives were taken first. Their share in the collection is about 1.3%.
SMILES,ARNT TACC3 PPI,S100A4 inh HTS,Yeast UUG start-1,MLL AF4-AF9 inh,E-sel inducer,ERAP1 inh,others
CCN(Cc1nc2cc(Cl)ccc2c(=O)[nH]1)C(=O)c1nn(C)c(=O)c2ccccc12,-2,-12,-15,0,·,63*,
CCCNC(=O)C1(C)CCN(C(=O)c2cccc(Cl)c2)C1 (stereo not drawn),·,-5,-17,0,·,1,
CCCNC(=O)C1(C)CCN(C(=O)c2cccc(C#N)c2)C1 (stereo not drawn),·,6,0,28*,-1,-2,
C[C@H](CO)N1C[C@H](C)[C@H](CN(C)Cc2ccc(C(=O)O)cc2)Oc2ccc(N(C)C)cc2C1=O,·,·,·,·,-6,·,
C[C@@H]1CN([C@@H](C)CO)C(=O)c2cc(N(C)C)ccc2O[C@@H]1CN(C)Cc1ccc(-c2ccccc2)cc1,16,-6,-6,48*,·,-5,
C[C@@H]1CN([C@@H](C)CO)C(=O)c2cc(N(C)C)ccc2O[C@@H]1CN(C)Cc1ccccc1,0,-10,-18,3,0,0,
C[C@H](CO)N1C[C@H](C)[C@@H](CN(C)Cc2ccc(-c3ccccc3)cc2)Oc2ccc(N(C)C)cc2C1=O,11,-4,-10,29*,·,-5,
C[C@H](CO)N1C[C@H](C)[C@H](CN(C)Cc2ccccc2)Oc2ccc(N(C)C)cc2C1=O,-3,0,-24,-1,0,0,
C[C@H](CO)N1C[C@H](C)[C@H](CN(C)Cc2ccc(-c3ccccc3)cc2)Oc2ccc(N(C)C)cc2C1=O,20,-5,-10,49*,·,-2,
C[C@@H]1CN([C@H](C)CO)C(=O)c2cc(N(C)C)ccc2O[C@H]1CN(C)Cc1ccc(C(=O)O)cc1,-6,-49,-4,2,267*,-2,
COc1cccc(NC(=O)N[C@H]2CC[C@@H](CC(=O)N3CCCCC3)O[C@H]2CO)c1,-9,-4,·,0,1,3,
CO[C@@H]1CN(C)C(=O)c2ccc(NC(=O)c3cc(C)on3)cc2OC[C@H](C)NC[C@@H]1C,-3,10,-14,-3,0,4,
C[C@@H]1CN([C@@H](C)CO)C(=O)c2cc(NC(=O)C3CCCCC3)ccc2O[C@@H](C)CCCCO[C@H]1CN(C)Cc1ccc(C(F)(F)F)cc1,2,·,30,·,0,·,
C[C@@H]1CN([C@@H](C)CO)C(=O)c2cc(N(C)C)ccc2O[C@@H]1CN(C)C(=O)Nc1cccc2ccccc12,6,-1,2,6,39*,-2,
C[C@H]1CN([C@@H](C)CO)C(=O)c2cc(N(C)C)ccc2O[C@H]1CN(C)Cc1ccccc1,2,5,-9,0,0,-2,
C[C@H]1CN([C@@H](C)CO)C(=O)c2cc(N(C)C)ccc2O[C@H]1CN(C)Cc1ccc(C(=O)O)cc1,·,·,-18,0,?,·,
C[C@H]1CN([C@@H](C)CO)C(=O)c2cc(N(C)C)ccc2O[C@H]1CN(C)Cc1ccc(-c2ccccc2)cc1,10,-3,-11,33*,·,-2,
C[C@H](CO)N1C[C@H](C)[C@@H](CN(C)Cc2ccc(Oc3ccccc3)cc2)Oc2ccc(N(C)C)cc2C1=O,10,26,-9,37*,0,-1,
Cc1noc(C)c1S(=O)(=O)N(C)C[C@H]1Oc2ccc(NC(=O)C3CCCCC3)cc2CC(=O)N([C@H](C)CO)C[C@@H]1C,-1,-2,5,0,0,1,
COCC(=O)N[C@H]1CC[C@@H](CC(=O)NCc2ccc(Cl)cc2)O[C@H]1CO,·,23,-6,1,0,·,
Cc1noc(C)c1S(=O)(=O)Nc1ccc2c(c1)C(=O)N([C@@H](C)CO)C[C@H](C)[C@H](CN(C)C(=O)Cc1ccccc1)OCCCC[C@H](C)O2,-8,6,6,1,1,0,
Cc1noc(C)c1S(=O)(=O)Nc1ccc2c(c1)C(=O)N([C@@H](C)CO)C[C@@H](C)[C@H](CN(C)Cc1ccc3c(c1)OCO3)O2,·,·,·,·,1,·,
Cc1noc(C)c1NC(=O)N(C)C[C@H]1Oc2ccc(NS(=O)(=O)c3cccs3)cc2C(=O)N([C@H](C)CO)C[C@H]1C,-35,-1,-10,-13,29*,0,
Cc1noc(C)c1NC(=O)N(C)C[C@H]1Oc2ccc(NS(=O)(=O)c3c(C)noc3C)cc2C(=O)N([C@H](C)CO)C[C@@H]1C,-6,-2,-9,-6,31*!,-2,
Cc1noc(C)c1S(=O)(=O)Nc1ccc2c(c1)C(=O)N([C@@H](C)CO)C[C@@H](C)[C@@H](CN(C)Cc1ccc3c(c1)OCO3)O2,7,-1,-17,0,33*,2,

# 2 records drawn at random from those above, as already listed:
SMILES,ARNT TACC3 PPI,S100A4 inh HTS,Yeast UUG start-1,MLL AF4-AF9 inh,E-sel inducer,ERAP1 inh,others
COCC(=O)N[C@H]1CC[C@@H](CC(=O)NCc2ccc(Cl)cc2)O[C@H]1CO,·,23,-6,1,0,·,
C[C@@H]1CN([C@H](C)CO)C(=O)c2cc(N(C)C)ccc2O[C@H]1CN(C)Cc1ccc(C(=O)O)cc1,-6,-49,-4,2,267*,-2,

# Filtered by structure, those above with a COOH group
SMILES,ARNT TACC3 PPI,S100A4 inh HTS,Yeast UUG start-1,MLL AF4-AF9 inh,E-sel inducer,ERAP1 inh,others
C[C@H](CO)N1C[C@H](C)[C@H](CN(C)Cc2ccc(C(=O)O)cc2)Oc2ccc(N(C)C)cc2C1=O,·,·,·,·,-6,·,
C[C@@H]1CN([C@H](C)CO)C(=O)c2cc(N(C)C)ccc2O[C@H]1CN(C)Cc1ccc(C(=O)O)cc1,-6,-49,-4,2,267*,-2,
C[C@H]1CN([C@@H](C)CO)C(=O)c2cc(N(C)C)ccc2O[C@H]1CN(C)Cc1ccc(C(=O)O)cc1,·,·,-18,0,?,·,

# (next part)
SMILES,ARNT TACC3 PPI,S100A4 inh HTS,Yeast UUG start-1,MLL AF4-AF9 inh,E-sel inducer,ERAP1 inh,others
COc1ccc(NC(=O)CSc2nncn2C)cc1,-9,2,-10,0,·,-4,
COc1ccc(NC(=O)CSc2c(C)nn(-c3nnc(C)c(=O)[nH]3)c2C)cc1,60*,·,-27,·,·,·,
CO[C@H]1CN(C)C(=O)c2cc(NS(=O)(=O)CC(F)(F)F)ccc2OC[C@H](C)N(Cc2nccs2)C[C@H]1C,1,-6,·,-2,0,-4,
CCN1CCCC(NC(=O)c2scc3c2CCCC3)C1 (stereo not drawn),-8,-2,-16,47*,0,-3,
COc1ccc(-c2cnc3c(c2)C(=O)N([C@H](C)CO)C[C@H](C)[C@@H](CN(C)C(=O)NC2CCCC2)O3)cc1,-4,10,11,-2,-3,1,
COc1cc(C(O)c2nc3ccccc3n2C(C)C)cc(OC)c1OC (stereo not drawn),50*,1,7,-4,·,-4,
COc1ccc(OC)c(C(O)c2nc3ccccc3n2C(C)C)c1 (stereo not drawn),26,·,-16,·,·,·,
Cc1[nH]n(-c2nc(-c3ccccc3F)cc(=O)[nH]2)c(=O)c1CCO,45*,0,·,-2,·,3,
COCc1cc(=O)[nH]c(Nc2nc3ccc(C)cc3o2)n1,56*,·,·,·,·,·,
CCc1nn(CCCC(=O)N2CCN(c3ccc(OC)cc3)CC2)c(=O)c2cc3occc3n12,-2,3,·,5,141*,-3,
COc1ccc(Nc2cc(C)nc(NCc3ccccc3)n2)cc1,6,22,624*,19,1,1,Yeast UUG start-2=-7
Cc1ccc(Nc2cc(C)nc(NCc3ccccc3)n2)cc1,5,-8,·,10,·,-2,
COCCNC(=O)C[C@@H]1C[C@H]2c3cc(NC(=O)c4cccnc4)ccc3O[C@H]2[C@H](CO)O1,-7,-5,-7,-1,0,-1,
CCN(CC)CC#CCC(O)(c1ccccc1)C1CCCCC1 (stereo not drawn),-5,-1,-8,2,0,6,
